Assay results as given in PubChem BioAssay AID624170 (National Center for Advancing Translational Sciences (NCATS), 2012).
Values joined by “and” are separate entries in the source; they are usually repeats but may differ in a detail not shown here. Identical values can stand only once. The entries are a selection whose mix differs from that of the whole data set. Some tests of the compounds listed are not included; inactive here does not mean inactive elsewhere. Records with an inconclusive call do not appear. Active and inactive are the calls of the source. Calls follow the shape of the dose curve; as a rule, active = well fitted inhibition curve with a large enough effect; inconclusive = small, poorly fitted or top-dose-only effect, or another doubt; inactive = no such curve, though single readings can be large or run the other way.

Protein sequences, listed by entry. Tags and fused reporters are not part of them.
UniProt O94925, whole entry: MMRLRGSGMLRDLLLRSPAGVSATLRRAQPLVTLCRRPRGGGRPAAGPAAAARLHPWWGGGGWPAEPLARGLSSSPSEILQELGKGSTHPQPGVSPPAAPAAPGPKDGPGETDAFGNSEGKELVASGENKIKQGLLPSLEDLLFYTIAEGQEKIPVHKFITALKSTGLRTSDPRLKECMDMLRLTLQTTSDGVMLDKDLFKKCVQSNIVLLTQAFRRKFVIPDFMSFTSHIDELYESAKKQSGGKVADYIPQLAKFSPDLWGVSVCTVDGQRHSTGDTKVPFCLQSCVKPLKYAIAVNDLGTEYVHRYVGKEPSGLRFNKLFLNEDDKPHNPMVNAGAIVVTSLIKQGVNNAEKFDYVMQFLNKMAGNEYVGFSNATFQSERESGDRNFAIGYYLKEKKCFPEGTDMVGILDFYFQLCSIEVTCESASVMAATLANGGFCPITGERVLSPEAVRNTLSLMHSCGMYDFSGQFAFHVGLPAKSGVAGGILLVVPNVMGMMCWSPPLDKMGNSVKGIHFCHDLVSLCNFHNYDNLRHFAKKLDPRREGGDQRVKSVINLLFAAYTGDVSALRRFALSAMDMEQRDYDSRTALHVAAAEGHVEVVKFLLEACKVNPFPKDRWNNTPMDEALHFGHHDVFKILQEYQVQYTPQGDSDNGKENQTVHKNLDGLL

The compounds below were run against Glutaminase kidney isoform, mitochondrial (Homo sapiens) (UniProt O94925) (assay: qHTS for Inhibitors of Glutaminase (GLS)). Conditions: GLS enzymatic activity, qHTS titration; at 45.5 µM (top of the series).
% is scaled to controls: 0 for no effect and ±100 for the full control effect.

| SMILES | activity change, negative = inhibition |
| --- | --- |
| CC(C)COc1ccc(C(=O)NCC2(N(C)C)CCCCC2)cc1 | inactive: -0.131% |
| COc1cccc(C(=O)NCC2(N3CCOCC3)CCCCC2)c1 | inactive: 2.96% |
| O=C(OC1CN2CCC1CC2)C(CO)(c1ccccc1)c1ccccc1 (stereo unspecified) | inactive: 8.13% |
| CC(C)Oc1ccc(C(=O)NCC2(N(C)C)CCCCC2)cc1 | inactive: 2.87% and inactive: 8.55% |
| O=C(OCCN1CCCC1)C(O)(c1ccccc1)c1ccccc1 | inactive: 7.22% |
| CN(C)c1cccc(C(=O)NCC2(N(C)C)CCCCC2)c1 | inactive: 21.6% |
| C=C(C)C#CC(O)(C(=O)OC1CCN(C)CC1)c1ccccc1 (stereo unspecified) | inactive: -30% |
| COc1cc(C(=O)NCC2(N(C)C)CCCCC2)cc(OC)c1OC | inactive: 19% |
| Cc1cccc(C(=O)NCC2(N(C)C)CCCCC2)c1 | inactive: 6.23% |
| COc1ccc(Br)c(C(=O)NCC2(N3CCCCC3)CCCCC2)c1 | inactive: -4.48% |
| COc1cc(C(=O)NCC2(N(C)C)CCCCC2)c([N+](=O)[O-])cc1OC | inactive: -10.8% |
| CN(C)C1(CNC(=O)c2ccc(Br)cc2)CCCCC1 | inactive: 13.9% |
| O=C(NCC1(N2CCCCC2)CCCCC1)c1cccc(Cl)c1 | inactive: 12.9% |
| COc1cccc(C(=O)NCC2(N3CCCCC3)CCCCC2)c1 | inactive: -3.41% |
| COc1ccc(C(=O)NCC2(N(C)C)CCCCC2)cc1Cl | inactive: 2.24% |
| CCCCOc1ccccc1C(=O)NCC1(N(C)C)CCCCC1 | inactive: 6.26% |
| CN1CCCC(OC(=O)C(O)(c2ccccc2)c2ccccc2)C1 (stereo unspecified) | inactive: 23.2% |
| CN(C)C1(CNC(=O)c2ccccc2[N+](=O)[O-])CCCCC1 | inactive: 4.8% |

| SMILES | activity change, negative = inhibition |
| --- | --- |
| Cc1ccccc1C(=O)NCC1(N2CCCCC2)CCCCC1 | inactive: -1.05% |
| CN(C)C1CCCC1OC(=O)C(O)(c1ccccc1)c1ccccc1 (stereo unspecified) | inactive: 8.43% |
| CN(C)c1ccc(C(=O)NCC2(N(C)C)CCCCC2)cc1 | inactive: 18.3% |
| COc1ccc(C(=O)NCC2(N(C)C)CCCCC2)cc1 | inactive: 10.2% |
| CCOc1cccc(C(=O)NCC2(N(C)C)CCCCC2)c1 | inactive: 5.78% |
| Cc1cc(C(=O)NCC2(N3CCCCC3)CCCCC2)ccc1[N+](=O)[O-] | inactive: 9.03% |
| CCN1CCCC(OC(=O)C2(O)c3ccccc3C=Cc3ccccc32)C1 (stereo unspecified) | inactive: 6.04% |
| O=C(NCC1(N2CCCCC2)CCCCC1)c1cccc(Br)c1 | inactive: 2.35% |
| C=CCN1CCN(CCOC(=O)C(O)(c2ccccc2)c2ccccc2)CC1 | inactive: -2.99% |
| O=C(NCC1(N2CCCCC2)CCCCC1)c1cc(F)c(F)cc1Cl | inactive: -2.96% |
| CN1[C@@H]2CC[C@H]1CC(OC(=O)C(O)(c1ccccc1)c1ccccc1)C2 (stereo partly specified) | inactive: -3.39% |
| O=C(NCC1(N2CCCCC2)CCCCC1)c1cc([N+](=O)[O-])ccc1Cl | inactive: -11% |
| Cc1ccc(C(=O)NCC2(N3CCCCC3)CCCCC2)cc1 | inactive: -28.6% |
| CN(C)C1(CNC(=O)c2ccccc2F)CCCCC1 | inactive: 2.25% |
| CCN(CC)CC(C)C(C)OC(=O)C(O)(c1ccccc1)c1ccccc1 (stereo unspecified) | inactive: -4.27% |
| CN(C)C1(CNC(=O)c2cccc(Cl)c2)CCCCC1 | inactive: 24.4% |
| COc1cc(SC)ccc1C(=O)NCC1(N(C)C)CCCCC1 | inactive: -2.13% |
| CC(C)N1C(=O)CC2(CCN(CCOC(=O)C(O)(c3ccccc3)c3ccccc3)CC2)C1=O | inactive: 0.214% |
